Source: patent US20040081647

Experiments:
[1] = system: fluorometric derivative of substrate S2 (PT: NH2-GGVR-)
[2] = system: fluorometric derivative of substrate S1 (HAE-PT)

In the case of “standard human thrombin preparation (Sigma)”, the “specificity constant Kcat/Km” value [1] is reported as 1.03e+07 M⁻¹ s⁻¹ and the “specificity constant Kcat/Km” value [2] is reported as 8.9e+06 M⁻¹ s⁻¹.
